Hits are enriched below; roughly 2.8% of the tested compounds scored in any of these assays.
Statin myotox sup = suppressors of statin myotoxicity in C2C12 myotubes, primary screen, cell-based, single point, plate reader; C2C12 myotubes + simvastatin, ATP luminescence, 48 h; scaled: DMSO 0, geranylgeraniol control 100; rescue of ATP level, % at 7.49 µM; 330,000 tested, 0.78% active;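 active means mean ATP rescue above about 67%, or every replicate alone reaching that limit, limit read from the data, passing the limit was not always enough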;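 further: myotubes were challenged with 10 µM simvastatin during compound exposure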
PGC1a acetyl inh = inhibitors of PGC1a acetylation signal, primary screen, cell-based, U2OS, AlphaScreen, inhibitor mode; 350,000 tested, 0.17% active; AlphaScreen anti-acetyl-lysine; with virally co-expressed GCN5 acetyltransferase; inhibition, % at 15.6 µM;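 active means every replicate shows inhibition of at least 40%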
PglD DTNB = C. jejuni PglD acetyltransferase inhibitors, primary screen, biochemical, DTNB colorimetric, single point. UDP-N-acetylbacillosamine N-acetyltransferase PglD (Campylobacter jejuni). purified PglD enzyme, DTNB colorimetric CoA detection. inhibition, % at 12.5 µM. 360,000 tested, 0.098% active. AID 602405, 2012; in the data active means inhibition above about 16%, passing the limit was not always enough
esBAF inh = Bmi1 luciferase reporter increase in mESCs, primary screen, esBAF inhibitor project, mouse ES cells, Bmi1 luciferase knock-in, single point; 24 h; 100% = twice the neutral-well signal; reporter increase, % at 12.5 µM; 350,000 tested, 2% active; AID 602393, 2012; in the data active means activation above about 40%;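 further: a rise in the Bmi1 reporter signal indicates esBAF inhibition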
E-selectin induc = E-selectin induction in HUVECs, primary screen, imaging, HUVEC, immunofluorescence imaging, single point | P16581 | normalized: neutral wells 0, TNF-alpha wells 100 | activation, % at 7.58 µM | 260,000 tested, 0.37% active | AID 686992, 2013;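 active means mean E-selectin-positive cell signal at least 10% of the positive control, reached in at least 60% of replicates, without over 20% cell loss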
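Assay system: HUVEC, human umbilical vein endothelial cells / Amount: 3,000 HUVEC/well / Controls: TNF-alpha positive control, DMSO neutral control / Compound dosing: single concentration / Medium: EGM-2 over gelatin coat / Evaluation: percent E-selectin-positive cells / Signal: immunofluorescence imaging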
Yeast UUG start-1 = modulators of yeast start codon fidelity, primary screen, whole organism, S. cerevisiae, single point, plate reader | AID 602363, 2012 | actives 0.13% (n = 350,000) | activity score, % at 18.7 µM | S. cerevisiae UUG-firefly luciferase reporter, luminescence/redox ratio;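 active means replicate mean at a twofold rise or more, about +100% in these data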;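 further: firefly luciferase made from a UUG start codon reports start codon fidelity; reporter light over untreated wells divided by growth signal over untreated wells; some hits fall short of that in this replicate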
Yeast UUG start-2 = enhancers of UUG start codon usage in yeast, dose response, S. cerevisiae, UUG firefly luciferase, cherry-pick, set 2; 540 tested, under 10 active; shares compounds with Yeast UUG start-1; activation, % at 38 µM; luminescence, 4 h; 100% means double the DMSO signal;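 active means signal increase whose fitted curve reaches an absolute level of 40 at a concentration under 10 µM; inactive means activity opposite to the expected increase, or the rest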
Of the large screens only hits and unclear results are named; the others gave an inactive call (follow-up assays come after a bar, where they were run).

CCC(C)N(C)Cc1cccc(C2(O)CCN(S(=O)(=O)c3ccc(F)cc3)CC2)c1 (stereo not drawn)	Statin myotox sup 123 (no result: E-selectin induc)
CCOC(=O)c1c[nH]n(-c2ccc(C)cc2)c1=O	esBAF inh 52 (no result: PGC1a acetyl inh)
C[C@@H]1CCCCO[C@@H](CN(C)CC2CCCCC2)[C@H](C)CN([C@H](C)CO)C(=O)c2cc(NC(=O)Nc3cccc4ccccc34)ccc2O1	none (no result: Statin myotox sup)
CCOC(=O)c1c(C)c(C(=O)NCCOC)c(C)n1CC	none (no result: E-selectin induc)
CCOC(=O)c1c(C)c(C(=O)Nc2ccc(N(C)C)cc2)c(C)n1CC	esBAF inh 47 (no result: E-selectin induc)
COc1ccc(NC(=O)N(C)C[C@@H]2OCCCC[C@H](C)Oc3ccc(NC(=O)NC(C)C)cc3C(=O)N([C@H](C)CO)C[C@@H]2C)cc1	none (no result: Statin myotox sup)
C=C1C(=O)C23C(O)C1CCC2C12COC3(O)C(O)C1C(C)(C)CCC2O (stereo not drawn)	Statin myotox sup 110 (no result: E-selectin induc)
Cc1c(Cl)cccc1Nc1nc(N)nc(CSc2ncccn2)n1	esBAF inh 52 (no result: E-selectin induc)
c1cncc(CSc2ccc(-c3cccs3)nn2)c1	esBAF inh 56
COc1ccc(C2CC(c3c(O)cc(C)oc3=O)=NCCS2)c(OC)c1 (stereo not drawn)	Statin myotox sup 117 (no result: E-selectin induc)
Cc1cc(O)c(C2=Nc3ccccc3SC(c3ccc(Cl)cc3)C2)c(=O)o1 (stereo not drawn)	none (no result: Statin myotox sup, PGC1a acetyl inh, PglD DTNB, esBAF inh, Yeast UUG start-1)
CC(=O)c1cc(F)c(N2CCN(C(=O)C(C)(C)C)CC2)cc1C	none (no result: E-selectin induc)
CC(=O)c1cc(F)c(N2CCCC2)cc1C	Statin myotox sup 101 (no result: E-selectin induc)
CCC(=O)N1CC2(C1)[C@@H](c1ccccc1)[C@@H](CO)N2Cc1ccccc1OC	none (no result: Statin myotox sup, PglD DTNB, esBAF inh, Yeast UUG start-1)
Cc1cccc(NC(=S)N2N=CCC2c2ccccc2)c1 (stereo not drawn)	esBAF inh 49 (no result: E-selectin induc)
CCc1ccccc1NC(=S)N1N=CCC1c1ccccc1 (stereo not drawn)	none (no result: E-selectin induc)
C[C@@H]1CCCCO[C@H](CN(C)S(=O)(=O)c2ccccc2)[C@H](C)CN([C@@H](C)CO)C(=O)c2cc(NC(=O)c3ccncc3)ccc2O1	none (no result: Statin myotox sup, E-selectin induc)
NCCCC[C@@H]1NC(=O)[C@H](CCC(=O)O)NC(=O)c2cc([N+](=O)[O-])cc(I)c2SC[C@@H](C(=O)NCC(N)=O)NC1=O	Yeast UUG start-1 119 | Yeast UUG start-2 inactive
CCCNC(=O)N1CC2(CCN(CC3CCOCC3)CC2)c2c(n(C)c3cc(OC)ccc23)[C@@H]1CO	none (no result: Statin myotox sup, PglD DTNB, esBAF inh, Yeast UUG start-1)
O=C(C[C@@H]1CC[C@H](NC(=O)CN2CCOCC2)[C@@H](CO)O1)NC1CCCCC1	none
CCN(C[C@H]1[C@@H](c2ccccc2)[C@@H](CO)N1C(C)=O)C(=O)c1ccccn1	Yeast UUG start-1 127 | Yeast UUG start-2 inactive
C[C@H](CO)N1C[C@H](C)[C@@H](CN(C)Cc2ccccc2)Oc2ccc(NC(=O)Nc3ccc(F)cc3)cc2CC1=O	none
O=C(NCC[C@H]1CC[C@H](NS(=O)(=O)c2cccc(F)c2)[C@H](CO)O1)C1CCCC1	none
Cc1ccc(S(=O)(=O)N[C@H]2CC[C@H](CCNS(=O)(=O)Cc3ccccc3)O[C@@H]2CO)cc1	Yeast UUG start-1 148 | Yeast UUG start-2 inactive
O=C(Nc1ccccc1F)N[C@H]1CC[C@H](CCNS(=O)(=O)c2ccc(F)cc2)O[C@H]1CO	Yeast UUG start-1 154 | Yeast UUG start-2 inactive
O=C(NCC[C@@H]1CC[C@H](NS(=O)(=O)c2cccc(F)c2)[C@H](CO)O1)C1CCCC1	Yeast UUG start-1 145 | Yeast UUG start-2 inactive
Cc1ccc(S(=O)(=O)N[C@@H]2CC[C@H](CCNS(=O)(=O)Cc3ccccc3)O[C@@H]2CO)cc1	none

Screening data (PubChem)
